Test results taken from patent CN108203464A.

By UniProt entry, the sequences of proteins in these tests, tags left out. Residues count along the entry.
UniProt Q15116, 25-170 limits assumed: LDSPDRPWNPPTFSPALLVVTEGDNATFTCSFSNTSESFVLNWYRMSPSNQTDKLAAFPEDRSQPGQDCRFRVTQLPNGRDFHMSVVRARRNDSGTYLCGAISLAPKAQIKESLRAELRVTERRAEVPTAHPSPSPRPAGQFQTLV
UniProt Q15116, 25-167 limits assumed: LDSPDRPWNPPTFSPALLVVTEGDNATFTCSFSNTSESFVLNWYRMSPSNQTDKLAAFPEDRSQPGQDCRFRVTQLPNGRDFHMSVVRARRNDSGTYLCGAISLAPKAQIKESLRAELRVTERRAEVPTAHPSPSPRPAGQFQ
UniProt Q15116, 25-288: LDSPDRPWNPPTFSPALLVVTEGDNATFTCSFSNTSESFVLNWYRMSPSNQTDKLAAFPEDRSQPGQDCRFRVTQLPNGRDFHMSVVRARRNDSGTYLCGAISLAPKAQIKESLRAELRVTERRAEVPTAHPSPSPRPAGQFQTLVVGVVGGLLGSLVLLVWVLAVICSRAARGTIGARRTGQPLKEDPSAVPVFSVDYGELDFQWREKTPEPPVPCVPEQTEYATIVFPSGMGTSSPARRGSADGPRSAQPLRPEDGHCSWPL

Tests used:
[1] = molecular target: 重组蛋白PD-1-Fc (GenScript, Z03370): human PD-1 extracellular domain fused to human IgG1 Fc (human) (UniProt Q15116); assay: indirect ELISA, PD-1-Fc coated at 0.5 μg/ml
[2] = molecular target: 重组人PD-1蛋白 (recombinant human PD-1 protein) (human) (UniProt Q15116); assay: competition ELISA: human PD-1 coated, biotin-PD-L1-Fc 0.15 μg/ml as competitor
[3] = molecular target: human PD-1 expressed on cells (human) (UniProt Q15116); assay: cell-based or functional assay

- EC50 [1]: 0.00915 µg/mL
- IC50 [2]: 0.224 µg/mL
- IL-2 secretion, mixed lymphocyte reaction (CD4+ T cells + allogeneic dendritic cells), EC50 [3]: 0.144 μg/ml
- RLU, NFAT-RE reporter effector cells (PD-1) co-cultured with PD-L1 target cells, EC50 [3]: 0.327 µg/mL
Substance: Pembrolizumab (Keytruda), Merck & Co., Inc (antibody)
